Laboratory results taken from US10611765B2, “Pyrrolopyrimidine derivatives as Mps1/TTK kinase inhibitors” (Ohio State Innovation Foundation, priority 2014, dated 2020).

Amino acid sequences for entries named in this document (tags omitted).
UniProt Q05397, whole entry: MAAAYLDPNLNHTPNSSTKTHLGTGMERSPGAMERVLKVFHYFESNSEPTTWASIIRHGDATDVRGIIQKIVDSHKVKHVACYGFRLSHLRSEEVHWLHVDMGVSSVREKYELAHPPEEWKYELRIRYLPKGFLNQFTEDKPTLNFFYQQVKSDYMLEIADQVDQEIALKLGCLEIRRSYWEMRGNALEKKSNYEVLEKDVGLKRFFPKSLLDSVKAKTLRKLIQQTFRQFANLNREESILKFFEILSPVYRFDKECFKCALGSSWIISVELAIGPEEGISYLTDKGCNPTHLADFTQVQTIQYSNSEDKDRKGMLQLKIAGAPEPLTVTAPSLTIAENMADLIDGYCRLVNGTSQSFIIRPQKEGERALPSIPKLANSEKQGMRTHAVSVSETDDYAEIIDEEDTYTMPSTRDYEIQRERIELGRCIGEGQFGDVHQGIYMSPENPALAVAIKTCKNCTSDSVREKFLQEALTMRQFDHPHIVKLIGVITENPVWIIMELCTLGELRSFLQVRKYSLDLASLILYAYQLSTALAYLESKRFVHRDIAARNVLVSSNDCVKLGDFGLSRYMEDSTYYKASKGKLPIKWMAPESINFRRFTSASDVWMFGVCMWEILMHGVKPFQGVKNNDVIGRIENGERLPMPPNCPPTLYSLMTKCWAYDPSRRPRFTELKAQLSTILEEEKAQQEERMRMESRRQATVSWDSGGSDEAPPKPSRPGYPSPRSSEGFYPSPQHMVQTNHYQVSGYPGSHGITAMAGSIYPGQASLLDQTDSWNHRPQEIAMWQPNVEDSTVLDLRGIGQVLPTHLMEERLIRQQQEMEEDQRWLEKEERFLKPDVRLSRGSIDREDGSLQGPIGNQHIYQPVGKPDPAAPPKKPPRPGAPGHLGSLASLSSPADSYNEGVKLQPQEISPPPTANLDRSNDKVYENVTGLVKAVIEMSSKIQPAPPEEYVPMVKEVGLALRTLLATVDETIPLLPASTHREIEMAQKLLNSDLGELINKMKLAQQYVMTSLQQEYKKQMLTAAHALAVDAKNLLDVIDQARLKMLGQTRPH

Target: FAK/PTK2 (Homo sapiens, UniProt Q05397)
Details: read-out: IC50 FAK/PTK2; kinase profiling

IC50: 890 nM
Structure (SMILES): COc1cc(N2CCOCC2)ccc1Nc1nc(NC2CCCCC2)c2cc[nH]c2n1 [Compound 13, N4-cyclohexyl-N2-(2-methoxy-4-morpholinophenyl)-7H-pyrrolo[2,3-d]pyrimidine-2,4-diamine]
